This experiment concerns the target T1, Androgen receptor (Rattus norvegicus, UniProt P15207).
T1 sequence (P15207 whole entry): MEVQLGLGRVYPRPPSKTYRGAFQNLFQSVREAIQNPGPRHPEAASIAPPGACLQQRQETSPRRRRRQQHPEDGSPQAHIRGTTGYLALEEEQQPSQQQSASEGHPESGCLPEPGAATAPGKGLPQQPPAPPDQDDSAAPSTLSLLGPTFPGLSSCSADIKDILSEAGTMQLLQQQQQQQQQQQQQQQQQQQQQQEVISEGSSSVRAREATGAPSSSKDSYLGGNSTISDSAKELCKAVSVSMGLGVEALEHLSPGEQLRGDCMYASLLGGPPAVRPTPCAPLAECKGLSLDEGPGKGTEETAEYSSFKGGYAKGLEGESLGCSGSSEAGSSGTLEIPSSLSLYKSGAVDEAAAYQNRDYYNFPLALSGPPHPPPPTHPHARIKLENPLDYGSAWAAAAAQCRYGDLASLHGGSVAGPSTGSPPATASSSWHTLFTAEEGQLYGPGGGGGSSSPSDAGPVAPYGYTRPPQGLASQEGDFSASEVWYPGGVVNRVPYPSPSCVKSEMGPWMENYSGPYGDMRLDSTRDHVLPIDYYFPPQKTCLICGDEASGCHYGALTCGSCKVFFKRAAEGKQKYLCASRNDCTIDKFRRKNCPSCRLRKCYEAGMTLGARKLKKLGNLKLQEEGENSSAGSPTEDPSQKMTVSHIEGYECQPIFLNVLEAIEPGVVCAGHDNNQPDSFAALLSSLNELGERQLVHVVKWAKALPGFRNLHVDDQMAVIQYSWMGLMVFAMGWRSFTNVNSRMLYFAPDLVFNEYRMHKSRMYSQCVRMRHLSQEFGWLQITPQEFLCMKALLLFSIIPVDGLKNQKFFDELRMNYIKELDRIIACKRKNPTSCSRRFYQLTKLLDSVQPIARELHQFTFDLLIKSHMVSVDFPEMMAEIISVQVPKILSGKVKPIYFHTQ

In turn, `C[C@](O)(COc1ccc(Cl)c(F)c1)C(=O)Nc1ccc(C#N)c(C(F)(F)F)c1` came in with a Ki of 1.7 nM.

A word on the Ki: it is the dissociation constant of the complex between target and ligand, obtained from inhibition or displacement.

Values taken from BindingDB's records for doi:10.1016/j.bmcl.2008.09.002 (Ohio State University, 2008).
